Antibody variant affinities, Ab-95 light chain, assay 2

Target peptide (SARS-CoV-2 spike, HR2 region): PDVDLGDISGINAS

Parent scFv Ab-95: VH joined to VL by a 15-residue (Gly4Ser)3 linker. Changes lie in the light chain CDRs alone.
VH: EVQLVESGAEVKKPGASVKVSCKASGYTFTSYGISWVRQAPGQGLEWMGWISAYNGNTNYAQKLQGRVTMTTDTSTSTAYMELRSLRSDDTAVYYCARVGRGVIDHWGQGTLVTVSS
VL: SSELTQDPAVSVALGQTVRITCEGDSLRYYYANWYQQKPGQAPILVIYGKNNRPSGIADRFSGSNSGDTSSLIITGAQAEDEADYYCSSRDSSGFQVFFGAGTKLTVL

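Phage display of a naive human antibody library on the peptide gave the parent. Library AAYL52 holds single substitutions and randomly drawn double and triple substitutions in the CDRs. The assay is AlphaSeq: two haploid yeast populations carry antibody and antigen on their surface. Mating (16 h, 30 °C) was followed by selection of diploids and sequencing of their barcodes. Read counts were normalised to the haploid input and turned into Kd by a linear fit to BCL2-family pairs of known affinity, for each replicate. The assay was run in three technical replicates.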

Each variant is given by its three light chain CDRs, as the data file delimits them; those of the parent are EGDSLRYYYAN, GKNNRPS, SSRDSSGFQVF. Values are log10 of the apparent Kd in nM; lower means stronger binding. "ND" means that the variant was in the library but no mating with the target was seen in that replicate; the authors take this as a sign of poor binding, and no number exists. In this assay the parent's reference entry averaged 2.31; its copy inside this library read 2.25. As a blank, each scFv also met three strains without target: over library AAYL52, 28% of these pairings were detected, typically at 3.91 and seldom below 2.90. Also given: how often the same scFv was detected with the empty control strains.

Variant EGDSLRYYYAN, GKNNRPS, SPGTSSGFQVF showed 4.58, 3.45, 2.62 (controls 3 of 9).
Variant EWDSLRYYYAN, GKNNRPS, SSRDESGYQVF showed 1.54, 1.33, 1.40 (controls 1 of 9).
Variant EGDSLRYKYAN, GKNNRPS, SSRDSSGPQVF showed 1.83, 1.44, 1.03 (controls 3 of 9).
Variant EGDSLRVYYAN, GKNNRPH, ISRDSSGFQVF showed 3.73, ND, 3.25 (controls 3 of 9).
Variant EGPSLRNYYAN, GKNNRPS, SSRDSNGFQVF showed 2.75, 2.56, 2.17 (controls 3 of 9).
Variant EGMSLRYYYAN, GKNNRPS, SSRDSSGFQVF showed 2.35, 2.20, 2.08 (controls 2 of 9).
Variant EGDSLRYYYAN, WSNNRPS, SSRDSSGFQAF showed ND, 4.86, 4.16 (controls 2 of 9).
Variant EGDSLRYYYQN, GKNNRPS, SSRDSNGFQVR showed 2.87, 3.04, 3.00 (controls 1 of 9).
Variant EGDSLRYYYAN, GKQNRPP, SSRDSSGFQVF showed 2.49, 2.97, 2.49 (controls 1 of 9).
Variant EGDSLRYKYAN, GKTNRPS, SSRDSSGFQKF showed 4.57, 5.83, ND (controls 4 of 9).
Variant EGDSLRYYYAN, GKTNRPS, YSRDSSGVQVF showed 4.14, ND, ND (controls 2 of 9).
Variant EGDSLRYYYSN, GKNNRPS, SSRDSSAFQVF showed 3.38, 3.31, 1.92 (controls 3 of 9).
Variant EGDSLLYYYAN, GKNNRPS, DSRDASGFQVF showed 2.73, 2.55, 2.66 (controls 1 of 9).
Variant ELDSLRYYYAN, GKNNRPS, SSWDSSRFQVF showed 4.10, 3.17, 2.83 (controls 4 of 9).
Variant EGDSLRYYYAN, GKNNRPH, SSRDSSHWQVF showed 3.04, 2.40, 2.09 (controls 1 of 9).
Variant EGDSLRYYYSN, GKMNRPS, SSRDSSGFIVF showed 3.33, ND, ND (controls 2 of 9).
Variant EHESLRYYYAN, GKNNRPS, SSRDSSGFQVF showed 2.73, 2.91, 2.04 (controls 3 of 9).
Variant EGDSLRYYYAN, GKNLRPL, SSRDSSGFIVF showed 4.40, 3.88, ND (controls 0 of 9).
Variant EGDSLRYYYAL, GKNNRGS, SSRDSSRFQVF showed ND, ND, ND (controls 0 of 9).
Variant ENDSLRYYYAN, GKNNRPS, SSRDSSGHQVF showed 2.85, 4.00, ND (controls 1 of 9).
Variant TGDSLRYYYAN, GKNNRPS, SSRDSSGGYVF showed 3.38, 2.63, 2.64 (controls 4 of 9).
Variant EGDSLRYYYAN, GKENRPS, SSRDDSGFQVF showed 3.22, 3.50, 3.78 (controls 5 of 9).
Variant TGDSLRYYYAN, GKNNRKS, SSRDSSLFQVF showed ND, ND, ND (controls 1 of 9).
Variant EGDSLRYYYAN, GKNNRPS, SSYDSSGFQGF showed 2.61, 2.46, 2.28 (controls 3 of 9).
Variant EGDSLDYYYAN, GKNNRPS, SSRDYWGFQVF showed 3.50, 2.93, ND (controls 5 of 9).
Variant EGDSLRYYYAN, GKLNRPS, SSRDSSGFQVF showed 3.35, 2.41, 3.35 (controls 1 of 9).
Variant EGDSIRYYEAN, GKNNRPS, SSRDSSWFQVF showed 2.34, 1.67, 2.04 (controls 3 of 9).
Variant EGDSLRYDYAN, GKNNRPS, SSRDSSGFQNF showed ND, ND, ND (controls 1 of 9).
Variant EGDSMRYYQAN, GKNNRPD, SSRDSSGFQVF showed 1.63, 1.60, 0.99 (controls 6 of 9).
Variant QGDSLRYYYAN, GKHNRPS, SSRDSHGFQVF showed 4.14, ND, ND (controls 1 of 9).
Variant EGASLRYYYAN, GQSNRPS, SSRDSSGFQVF showed 2.32, 2.26, 2.62 (controls 5 of 9).
Variant EGDSLRYYYAN, GKNNRWS, SSRDSSGFWVP showed ND, ND, 3.65 (controls 1 of 9).
Variant EGDSLRYYYEN, GKNNRPS, SCRDSSGFQVS showed 3.47, ND, 2.80 (controls 2 of 9).
Variant EGDSLWYYYAA, GKNNRPS, SSRHSSGFQVF showed 3.92, ND, ND (controls 0 of 9).

The 4 strongest on average among those seen in every replicate, once more:

With EGDSMRYYQAN, GKNNRPD, SSRDSSGFQVF the result was 1.63, 1.60, 0.99 (controls 6 of 9).
With EWDSLRYYYAN, GKNNRPS, SSRDESGYQVF the result was 1.54, 1.33, 1.40 (controls 1 of 9).
With EGDSLRYKYAN, GKNNRPS, SSRDSSGPQVF the result was 1.83, 1.44, 1.03 (controls 3 of 9).
With EGDSIRYYEAN, GKNNRPS, SSRDSSWFQVF the result was 2.34, 1.67, 2.04 (controls 3 of 9).

Source: Engelhart et al. 2022 (doi:10.1038/s41597-022-01779-4), MIT Lincoln Laboratory and A-Alpha Bio; data file from the FLAb repository.